# Shown are actives, neighbours in structure and some others; about 1.3% of the full set was active somewhere.
# Yeast UUG start – alters start codon recognition fidelity in yeast; AID 602363; activity score, % at 18.7 µM; 350,000 tested, 0.13% active; S. cerevisiae UUG-firefly luciferase reporter, luminescence/redox ratio;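 active means replicate mean at a twofold rise or more, about +100% in these data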;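 further: firefly luciferase made from a UUG start codon reports start codon fidelity; reporter light over untreated wells divided by growth signal over untreated wells; some hits fall short of that in this replicate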
# LGR2 inh – inhibitors of bursicon-induced Drosophila LGR2 receptor cAMP signaling. HEK293 LGR2, CRE-luciferase, bursicon-stimulated, 4 h. inhibition, % at 9.99 µM. 380,000 compounds, 0.35% hits;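 active = drop in luminescence signal, shown as inhibition above about 50% in the replicate tests, limit read from the data, passing the limit was not always enough; inconclusive = probably only some replicates passing the limit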;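 also: agonist challenge used bursicon conditioned medium at about half maximal strength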
# F508del corr – correctors of CFTR F508del function in bronchial epithelial cells; 350,000 compounds, 0.36% hits; CFBE cells, YFP halide quenching; stimulated with forskolin plus potentiator P3; % fluorescence drop versus neutral controls; activity (quench increase), % at 7.58 µM;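 active = mean added fluorescence quench of at least 8% versus neutral control, with both replicates also reaching 8%; inconclusive = only one of the mean or replicate conditions met; inactive = mean below 8% and not both replicates reaching 8%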;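 also: cells transiently co-express mutant CFTR-F508del with the halide-sensitive YFP; corrector assay measuring rescue of mutant channel to the surface after 24 h compound exposure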
# miR-122 sensor – miR-122 inhibition in Huh7 cells; 340,000 compounds, 0.3% hits; activation (reporter increase), % at 12.5 µM; AID 602342; Huh7 miR-122 Renilla luciferase sensor, 48 h; neutral wells = 0, positive control = 100;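 active = mean replicate activation score at least 90 and every replicate individually at or above 90; inconclusive = only one of the two criteria met; inactive = neither criterion met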;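 also: higher luciferase means less miR-122 activity so hits act as miR-122 inhibitors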
# EWS-Fli inh – EWS/Fli transcriptional activity inhibition; A673 NR0B1-luciferase reporter, viability-normalised; inhibition, % at 12.6 µM; 350,000 compounds, 0.67% hits; AID 651661;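 active = mean inhibition of at least 50% after viability correction, with every replicate also passing that limit; inconclusive = mean reaches 50% but only one of two replicates passes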;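 also: firefly luciferase signal divided by Alamar Blue viability fluorescence both relative to DMSO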
# PglD inh – PglD (C. jejuni) enzyme inhibition. inhibition, % at 12.5 µM. AID 602405. 360,000 compounds, 0.098% hits. purified PglD enzyme, DTNB colorimetric CoA detection; in the data active = inhibition above about 16%, passing the limit was not always enough; inconclusive = no clear call, values can overlap the other calls
# The depositor's hits bear a star; ? = inconclusive; nt = no result; [ ] = remark or other dose.
item	SMILES	Yeast UUG start	LGR2 inh	F508del corr
1	C[C@@H]1CN([C@H](C)CO)C(=O)c2cc(NC(=O)Nc3cccc4ccccc34)ccc2O[C@@H]1CN(C)CC1CCCCC1	9	10	-1
2	C[C@@H]1CN([C@H](C)CO)C(=O)c2cc(NC(=O)Nc3cccc4ccccc34)ccc2O[C@H]1CN(C)CC1CCCCC1	11	-17	3
3	C[C@H](CO)N1C[C@H](C)[C@@H](CN(C)CC2CCCCC2)OCCCC[C@H](C)Oc2ccc(NC(=O)Nc3cccc4ccccc34)cc2C1=O	12	0	1
4	CCN(C[C@H]1N[C@@](CC)(C(=O)OC)[C@H]2C(=O)N(C)C(=O)[C@@H]12)S(=O)(=O)c1ccc(-c2ccccc2)cc1	-1	-4	3
5	CNC(=O)N(O)C1N(NC(=O)Nc2cccc3ccccc23)C(=S)SC1(C)C (configuration not stated)	nt	-4	nt
6	C[C@@H]1CN([C@H](C)CO)C(=O)c2cc(NC(=O)Nc3cccc4ccccc34)ccc2O[C@@H](C)CCCCO[C@@H]1CN(C)CC1CCCCC1	9	-4	1
7	C[C@@H]1CCCCO[C@H](CN(C)CC2CCCCC2)[C@H](C)CN([C@H](C)CO)C(=O)c2cc(NC(=O)Nc3cccc4ccccc34)ccc2O1	14	-6	-2
8	Cc1ccc(S(=O)(=O)NCCC(=O)N2CC(C)OC(C)C2)cc1 (configuration not stated)	-10	12	-1

item	miR-122 sensor	EWS-Fli inh	PglD inh
1	-8[16.7 µM]	70*	-1
2	-4[16.7 µM]	22	-3
3	-34[16.7 µM]	7	10
4	nt	5	1
5	nt	-17	nt
6	-30[16.7 µM]	76*	2
7	-25[16.7 µM]	87*	9
8	-8	8	3

# Looked up one by one from the list above:
item	SMILES	Yeast UUG start	LGR2 inh	F508del corr
1	C[C@@H]1CN([C@H](C)CO)C(=O)c2cc(NC(=O)Nc3cccc4ccccc34)ccc2O[C@@H]1CN(C)CC1CCCCC1	9	10	-1
2	C[C@@H]1CN([C@H](C)CO)C(=O)c2cc(NC(=O)Nc3cccc4ccccc34)ccc2O[C@H]1CN(C)CC1CCCCC1	11	-17	3

item	miR-122 sensor	EWS-Fli inh	PglD inh
1	-8[16.7 µM]	70*	-1
2	-4[16.7 µM]	22	-3

# Along the list, from the results shown.
# Compounds 1–8 in LGR2 inh, in turn: 10, -17, 0, -4, -4, -4, -6, 12
# Compounds 1–8 in F508del corr, in turn: -1, 3, 1, 3, nt, 1, -2, -1
# Compounds 1–8 in miR-122 sensor, in turn: -8[16.7 µM], -4[16.7 µM], -34[16.7 µM], nt, nt, -30[16.7 µM], -25[16.7 µM], -8

# (next part)
item	SMILES	Yeast UUG start	LGR2 inh	F508del corr
9	COc1ccc(/C=C2\SC(=O)N(CCNC(=O)C3CCN(S(=O)(=O)c4cccs4)CC3)C2=O)cc1	-10	-59	nt
10	CN1CCN(c2ccccc2NC(=O)Cc2cn(C)c3ccccc23)CC1	-19	-4	2
11	Cc1ccc(C2CC(c3ccc(C)cc3)n3nc(N)nc3N2)cc1 (configuration not stated)	2	10	0
12	O=S(=O)(c1ccc(F)cc1)c1snnc1-c1ccccc1	nt	58*	-3
13	CC(=O)Nc1ccc(Nc2nc(-c3c(C)nc4ccccn34)cs2)cc1	-23	4	0
14	Cc1ccc2nc(-c3ccc(NC(=O)COC(=O)c4ccc([N+](=O)[O-])o4)cc3)sc2c1	nt	83*	-1
15	Cc1ccc2nc(-c3ccc(NC(=O)COC(=O)c4ccco4)cc3)sc2c1	nt	66*	nt
16	CC(=O)Nc1ccc(/C=N/NS(=O)(=O)c2cc(C)ccc2C)cc1	-12	15	0

item	miR-122 sensor	EWS-Fli inh	PglD inh
9	0	nt	-7
10	11	14	1
11	nt	3	1
12	nt	40	nt
13	11	57*	6
14	nt	55*	nt
15	nt	nt	nt
16	464*	5	-3

# Other structures
item	SMILES	Yeast UUG start	LGR2 inh	F508del corr
17	COc1ccc2c3c(n(C)c2c1)[C@H](CO)N(C(=O)C1CC1)CC31CCN(Cc2cccc(F)c2)CC1	nt	-5	15*
18	COc1ccc2c3c([nH]c2c1)[C@@H](CO)N(S(C)(=O)=O)CC31CCN(Cc2cccc(F)c2)CC1	nt	13	5
19	COc1ccc2c3c([nH]c2c1)[C@H](CO)N(S(C)(=O)=O)CC31CCN(Cc2cccc(F)c2)CC1	nt	-1	8.3*
20	COCC(=O)N1CC2(CCN(Cc3ccccc3)CC2)c2c([nH]c3cc(OC)ccc23)[C@H]1CO	nt	-2	13*
21	COc1ccc2c3c([nH]c2c1)[C@H](CO)N(C(=O)NC(C)C)CC31CCN(Cc2ccccc2)CC1	nt	-11	3
22	COc1ccc2c3c([nH]c2c1)[C@H](CO)N(C(=O)Nc1ccc(F)cc1)CC31CCN(S(=O)(=O)c2ccccc2)CC1	nt	21	8.8*
23	CC(C)c1ccc(/C=N/n2c(COc3ccccc3)n[nH]c2=S)cc1	-25	5	1
24	CCCNC(=O)N1CC2(CN(CC3CCCCC3)C2)c2c(n(C)c3cc(OC)ccc23)[C@H]1CO	nt	-20	9.3*

item	miR-122 sensor	EWS-Fli inh	PglD inh
17	nt	18	nt
18	nt	20	nt
19	nt	6	nt
20	nt	-2	nt
21	nt	7	nt
22	nt	-4	nt
23	nt	22	2
24	nt	7	nt

# (listing goes on)
item	SMILES	Yeast UUG start	LGR2 inh	F508del corr
25	CC(=O)N1CCCc2cc(S(=O)(=O)Nc3ccc4c(c3)OCO4)ccc21	-16	nt	nt
26	CC(=O)N1CCc2cc(S(=O)(=O)Nc3ccc(C)cc3)ccc21	-19	-7	-1
27	COc1cccc(NS(=O)(=O)c2ccc3c(c2)CCN3C(C)=O)c1	-17	15	1
28	CC(=O)N1CCc2cc(S(=O)(=O)Nc3cccc(C(F)(F)F)c3)ccc21	2	nt	nt
29	CCc1ccccc1NC(=O)CN(C)C(=O)CN1C(=O)NC2(CCCCCC2)C1=O	-26	2	-7
30	O=C(N/N=C/c1ccc(Br)s1)c1c[nH]c2ccccc12	nt	-60	nt
31	Cc1cc(NC(=O)NC(=O)c2ccccc2NC(=O)CN)ccc1Oc1ncc(Br)cn1	nt	nt	-1
32	Cc1cc(NC(=O)NC(=O)c2ccccc2NC(=O)CN(C)C)ccc1Oc1ncc(Br)cn1	nt	-2	1

item	miR-122 sensor	EWS-Fli inh	PglD inh
25	268*	nt	-3
26	29	17	-3
27	nt	10	-2
28	100*	nt	1
29	2	-2	6
30	nt	nt	nt
31	nt	28	nt
32	14	58*	nt

# Later entries:
item	SMILES	Yeast UUG start	LGR2 inh	F508del corr
33	COC(=O)c1ccccc1NC1=C/C(=N\S(=O)(=O)c2cccs2)c2ccccc2C1=O	-25	91*	0
34	COc1ccccc1Cc1c(-c2ccc(Cl)cc2)nc2ccc(Br)cn12	-11	-66	10*
35	COc1ccccc1Cc1c(-c2ccc(C)cc2)nc2ccc(Br)cn12	-19	-54	5
36	O=C(c1ccccc1)c1cccn1CC(=O)N1CCN(c2ccccc2)CC1	11	nt	nt
37	COc1ccc(C(=O)/C=C2/C(=O)Nc3ccccc32)c(OC)c1	nt	?	2
38	COc1cc(OC)c(/C=C2\C(=O)Nc3ccccc32)c(OC)c1	nt	29	1
39	CC(=O)Nc1c(Cl)c(Cl)c2c(c1Cl)C(=O)c1cc(Cl)ccc1-2	-6	14	2
40	Cc1ccc(S(=O)(=O)N2[C@@H](c3ccccc3)C(C(=O)O)=CC[C@H]2c2cccc(Cl)c2)cc1	-14	1	4

item	miR-122 sensor	EWS-Fli inh	PglD inh
33	22	-15	-3
34	-2	-56	3
35	2	-85	-3
36	nt	nt	0
37	nt	59*	nt
38	nt	56*	nt
39	5	22	0
40	-6	-8	-2

# Additional entries:
item	SMILES	Yeast UUG start	LGR2 inh	F508del corr
41	Cc1cc(C)nc(SC2CCOC2=O)n1 (configuration not stated)	-12	nt	nt
42	CC(C)(C)c1nnc(NC(=O)c2cccnc2Cl)s1	3	14	nt
43	COc1cc(OC)c2c(-c3cccc(-c4ccc(C#N)cc4)c3)cc(=O)oc2c1	-36	4	1
44	COc1cc(OC)c2c(-c3cccc(-c4ccc(C(F)(F)F)cc4)c3)cc(=O)oc2c1	-18	17	2
45	COc1cc(OC)c2c(-c3cccc(-c4sccc4C(C)=O)c3)cc(=O)oc2c1	-10	20	9.7*

item	miR-122 sensor	EWS-Fli inh	PglD inh
41	3	nt	3
42	-5	-5	1
43	0	56*	-1
44	-5	?	1
45	73	56*	-7

# Assay outcomes as filed in PubChem BioAssay.
